# Experimental data as given in PubChem BioAssay (NCI).
# Some salts and complexes are drawn in separate pieces, as the source files them; their charges need not balance.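 Each compound was tested at five concentrations against cells in 96-well plates for 48 hours. At the GI50, growth is halved. The concentration for full growth arrest is given as TGI.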
# What was measured:
# Experiment in all cases: NCI-60 cell line screen, 48 h
# 786-0 renal = system: 786-0 renal
# A549 NSCLC = system: A549 NSCLC
# ACHN renal = system: ACHN renal
# CCRF-CEM leukemia = system: CCRF-CEM leukemia
# DLD-1 colon = system: DLD-1 colon
# DMS 114 small cell lung = system: DMS 114 small cell lung
# DMS 273 small cell lung = system: DMS 273 small cell lung
# HCC-2998 colon = system: HCC-2998 colon
# HCT-116 colon = system: HCT-116 colon
# HL-60(TB) leukemia = system: HL-60(TB) leukemia
# HOP-18 NSCLC = system: HOP-18 NSCLC
# HOP-92 NSCLC = system: HOP-92 NSCLC
# HT29 colon = system: HT29 colon
# IGROV1 ovarian = system: IGROV1 ovarian
# KM12 colon = system: KM12 colon
# KM20L2 colon = system: KM20L2 colon
# LOX IMVI melanoma = system: LOX IMVI melanoma
# M14 melanoma = system: M14 melanoma
# MALME-3M melanoma = system: MALME-3M melanoma
# NCI-H226 lung = system: NCI-H226 lung
# NCI-H23 lung = system: NCI-H23 lung
# NCI-H322M lung = system: NCI-H322M lung
# NCI-H460 lung = system: NCI-H460 lung
# NCI-H522 lung = system: NCI-H522 lung
# OVCAR-3 ovarian = system: OVCAR-3 ovarian
# OVCAR-4 ovarian = system: OVCAR-4 ovarian
# OVCAR-5 ovarian = system: OVCAR-5 ovarian
# RXF 393 renal = system: RXF 393 renal
# SF-295 CNS = system: SF-295 CNS
# SF-539 CNS = system: SF-539 CNS
# SK-MEL-2 melanoma = system: SK-MEL-2 melanoma
# SK-MEL-28 melanoma = system: SK-MEL-28 melanoma
# SK-MEL-5 melanoma = system: SK-MEL-5 melanoma
# SNB-19 CNS = system: SNB-19 CNS
# SNB-78 CNS = system: SNB-78 CNS
# UACC-257 melanoma = system: UACC-257 melanoma
# UACC-62 melanoma = system: UACC-62 melanoma
# UO-31 renal = system: UO-31 renal
smiles,measurement,setting,value
[Au+].[N-]=[N+]=N.c1ccc([PH+](c2ccccc2)c2ccccc2)cc1,GI50,786-0 renal,1.79 µM
same,TGI,786-0 renal,3.69 µM
same,GI50,A549 NSCLC,10.1 µM
same,TGI,A549 NSCLC,50.3 µM
same,GI50,ACHN renal,4.45 µM
same,TGI,ACHN renal,11.8 µM
same,GI50,CCRF-CEM leukemia,0.736 µM
same,TGI,CCRF-CEM leukemia,3.19 µM
same,GI50,DLD-1 colon,1.8 µM
same,TGI,DLD-1 colon,4.39 µM
same,GI50,DMS 114 small cell lung,1.57 µM
same,TGI,DMS 114 small cell lung,4.13 µM
same,GI50,DMS 273 small cell lung,10.5 µM
same,GI50,HCC-2998 colon,9.45 µM
same,TGI,HCC-2998 colon,22.4 µM
same,GI50,HCT-116 colon,3.39 µM
same,TGI,HCT-116 colon,12.5 µM
same,GI50,HL-60(TB) leukemia,2.06 µM
same,TGI,HL-60(TB) leukemia,6.05 µM
same,GI50,HOP-18 NSCLC,2.15 µM
same,TGI,HOP-18 NSCLC,4.28 µM
same,GI50,HOP-92 NSCLC,2.42 µM
same,TGI,HOP-92 NSCLC,5.43 µM
same,GI50,HT29 colon,9.79 µM
same,TGI,HT29 colon,37 µM
same,GI50,IGROV1 ovarian,2.49 µM
same,TGI,IGROV1 ovarian,7.19 µM
same,GI50,KM12 colon,12.5 µM
same,TGI,KM12 colon,40.4 µM
same,GI50,KM20L2 colon,9.96 µM
same,TGI,KM20L2 colon,35.5 µM
same,GI50,LOX IMVI melanoma,2.39 µM
same,TGI,LOX IMVI melanoma,7.73 µM
same,GI50,M14 melanoma,1.76 µM
same,TGI,M14 melanoma,4.36 µM
same,GI50,MALME-3M melanoma,1.52 µM
same,TGI,MALME-3M melanoma,3.07 µM
same,GI50,NCI-H226 lung,6.63 µM
same,TGI,NCI-H226 lung,20.8 µM
same,GI50,NCI-H23 lung,2.46 µM
same,TGI,NCI-H23 lung,7.73 µM
same,GI50,NCI-H322M lung,15.4 µM
same,TGI,NCI-H322M lung,29.5 µM
same,GI50,NCI-H460 lung,17.3 µM
same,TGI,NCI-H460 lung,73.4 µM
same,GI50,NCI-H522 lung,1.17 µM
same,TGI,NCI-H522 lung,2.64 µM
same,GI50,OVCAR-3 ovarian,2.9 µM
same,TGI,OVCAR-3 ovarian,8.04 µM
same,GI50,OVCAR-4 ovarian,1.87 µM
same,TGI,OVCAR-4 ovarian,5.55 µM
same,GI50,OVCAR-5 ovarian,15.1 µM
same,TGI,OVCAR-5 ovarian,29.2 µM
same,GI50,RXF 393 renal,1.16 µM
same,TGI,RXF 393 renal,2.57 µM
same,GI50,SF-295 CNS,11.7 µM
same,TGI,SF-295 CNS,84.9 µM
same,GI50,SF-539 CNS,10.4 µM
same,TGI,SF-539 CNS,25.7 µM
same,GI50,SK-MEL-2 melanoma,2.53 µM
same,TGI,SK-MEL-2 melanoma,7.7 µM
same,GI50,SK-MEL-28 melanoma,1.14 µM
same,TGI,SK-MEL-28 melanoma,4.49 µM
same,GI50,SK-MEL-5 melanoma,1.28 µM
same,TGI,SK-MEL-5 melanoma,2.88 µM
same,GI50,SNB-19 CNS,2.4 µM
same,TGI,SNB-19 CNS,7.83 µM
same,GI50,SNB-78 CNS,7.31 µM
same,TGI,SNB-78 CNS,69.2 µM
same,GI50,UACC-257 melanoma,1.83 µM
same,TGI,UACC-257 melanoma,5.94 µM
same,GI50,UACC-62 melanoma,1.65 µM
same,TGI,UACC-62 melanoma,4.45 µM
same,GI50,UO-31 renal,12 µM
same,TGI,UO-31 renal,24.3 µM
